These are literature values, as cited in US20220071988A1, “SUSTAINED RELEASE BUPRENORPHINE MICROSPHERES (SRBM) AND METHODS OF USE THEREOF” (BioDelivery Sciences International, Inc., priority 2016, published 2022).

With Buprenorphine HCl, where the note is “alcohol”, the solubility in alcohol entry was “soluble”. Besides, the solubility in cyclohexane result (cyclohexane) is given as “practically insoluble”. The solubility in methanol entry (methanol) is on record as “freely soluble”. Besides, the solubility in water entry (water) is “sparingly soluble”.
